In ChEMBL document CHEMBL1687761:

Key:
Escherichia coli = assay: Activity of Escherichia coli XL1-Blue wild-type IMP-1 beta-lactamase by spectrophotometer
[1] = system: CO/N=C(\C(=O)N[C@@H]1C(=O)N2C(C(=O)O)=C(COC(N)=O)CS[C@H]12)c1ccco1; assay: Ratio of Kcat to Km for Escherichia coli BL21(DE3) wild-type VIM-2 beta-lactamase by spectrophotometer
[2] = system: CO/N=C(\C(=O)N[C@@H]1C(=O)N2C(C(=O)O)=C(COC(N)=O)CS[C@H]12)c1ccco1; assay: Activity of Escherichia coli BL21(DE3) wild-type VIM-2 beta-lactamase by spectrophotometer
[3] = system: CO/N=C(\C(=O)N[C@@H]1C(=O)N2C(C(=O)O)=C(COC(N)=O)CS[C@H]12)c1ccco1; assay: Ratio of Kcat to Km for Escherichia coli XL1-Blue wild-type VIM-2 beta-lactamase by spectrophotometer
[4] = system: CO/N=C(\C(=O)N[C@@H]1C(=O)N2C(C(=O)O)=C(COC(N)=O)CS[C@H]12)c1ccco1; assay: Activity of Escherichia coli XL1-Blue wild-type VIM-2 beta-lactamase by spectrophotometer

Molecule	Km (Escherichia coli)	kcat (Escherichia coli)	kcat/Km [1]	Km [2]	kcat [2]	kcat/Km [3]	Km [4]	kcat [4]
CO/N=C(\C(=O)N[C@@H]1C(=O)N2C(C(=O)O)=C(COC(N)=O)CS[C@H]12)c1ccco1	37 µM	8 s⁻¹						
Metallo-beta-lactamase (Escherichia coli) (from UniProt Q5U7L7)			400000 M⁻¹ s⁻¹	20 µM	8 s⁻¹	400000 M⁻¹ s⁻¹	20 µM	8 s⁻¹
